Source: patent publication US11278555B2, “Combinational therapies for treatment of cancer comprising a bacteriochlorophyll derivative” (Yeda Research and Development Co. Ltd., priority 2016, dated 2022)

Tests used:
[1] = system: orthotopic 4T1-Luc breast tumors; experiment: Whole-body NIR fluorescence imaging of accumulation and clearance in 4T1 tumor bearing mice
Protocol: • (i) Bacteriochlorophyll Derivatives—The Bchl derivatives and RGD-conjugates thereof were provided by Steba Biotech (Rehovot, Israel). […] Concentration was verified by spectrophotometric measurement. STL-7012 was provided as dipotassium salt. Working solution was prepared by dissolving STL-7012 K^+ salt in 5% mannitol solution (1 mg/ml). […] WST11 was supplied as a powder and kept in the dark at −20° C. Stock was prepared by dissolving WST11 in DDW containing 5% glucose and 0.67% mannitol, aliquoted and lyophilized. Working solution was reconstituted with DDW and the concentration of solution was confirmed spectrophotometrically. Alternatively, Clinical WST11 (batch: P00611, and 10-130611) was supplied as lyophilized formulation. Material was dissolved in 5% dextrose, aliquoted and stored at −20° C. […] Aliquots were thawed, diluted with saline to a desired concentration and used on the same day at a dose of 75 mg/kg. Cyclophosphamide (CTX, Endoxan®, Baxter Oncology Gmbh, Germany) was purchased from a local pharmacy. A stock solution of 20 mg/ml was prepared by dissolving in 0.9% NaCl, aliquoted and stored at −20° C. Aliquots were thawed, diluted with saline if needed to a desired concentration and used on the same day prepared at indicated doses. • (iii) Murine cell lines—Mammary luciferase (luc)-labeled 4T1 cell line (4T1-Luc) was a kind gift from Dr. Zvi Granot (Faculty of Medicine, The Hebrew University of Jerusalem, Israel); melanoma B16-F10 cell line was obtained from the American Type Culture Collection (ATCC, Manassas, Va.); bladder MB49 cell line was a kind gift from James Allison (MSKCC, New York, USA), and luc-labeled MB49-cell line was established using the murine stem cell virus (MSCV)-puromycin-luc-GFP construct (kindly provided by Dr. Emily Cheng, Human Oncology and Pathogenesis Program, MSKCC). 4T1 and MB49 cells were maintained in DMEM medium and B16-F10 cells in RPMI medium supplemented with 1 mmol/L sodium pyruvate, 10% fetal calf serum (FCS), 250 μg/ml hygromycin, 0.06 mg/ml penicillin and 0.1 mg/ml streptomycin. […]

[2] = system: splenic immune cells of 4T1-bearing mice; experiment: FACS profile of splenic immune cell populations in 4T1-bearing mice after STL-6014 PDT and Gemzar; format: in vivo; details: second week post treatment
Protocol: Concentration was verified by spectrophotometric measurement. STL-7012 was provided as dipotassium salt. […] For mammary tumor treatment: Mice were anesthetized as before. […] Control groups received 0.9% NaCl. […] Following excision mice were euthanized.
FIG. 12 presents the treatment impact of STL-6014-PDT combined with Gemzar administration on the immune cell profile in spleen of 4T1-bearing mice. The profile of splenic cell populations was assessed following 3 treatment regimens: STL-6014 PDT, STL-6014 PDT with Gemzar (starting 2 days before PDT), and Gemzar alone. Treated groups were compared to tumor-bearing controls. Animals with good treatment responses (as judged by primary tumor ablation at 1, 2, and 3 weeks post-treatment) were taken for analysis. […] But the effect of the combined treatment modality appeared much stronger. […] The sustainability of the combined therapy on the MDSC profile nicely correlates with the time required for the evolution of adaptive immunity (Fisher et al., 2017; Nowak et al., 2003; Pitt et al., 2016).

Substance: 3^1-oxo-15-methoxycarbonylmethyl-Rhodobacteriochlorin 13^1-(2-sulfoethyl)amide-17^3-(cycloRGDfK) amide potassium salt [STL-6014]
- time after administration at which the tumor became evident ([1]; i.v. 7.5 mg/kg): ~2 h
- accumulation in the tumor (NIR fluorescence) ([1]; i.v., STL-6014 7.5 mg/kg, STL-7012 9.5 mg/kg): selective accumulation in the tumor
- accumulation in the tumor relative to surrounding tissues ([1]; on the day after administration): markedly accumulated in the tumor
- impact on MDSCs in spleen relative to control [2]: highly significant
